Patent US7354928B2, “Small molecule inhibitors targeted at Bcl-2” (The Regents of the University of Michigan, priority 2001, dated 2008)

The chains behind the UniProt entries cited, without tags or fusion partners. A line that says so, or that is headed by a name, gives the form on record, which may keep a tag or linker. Residues count along the entry.
UniProt Q07817, whole entry: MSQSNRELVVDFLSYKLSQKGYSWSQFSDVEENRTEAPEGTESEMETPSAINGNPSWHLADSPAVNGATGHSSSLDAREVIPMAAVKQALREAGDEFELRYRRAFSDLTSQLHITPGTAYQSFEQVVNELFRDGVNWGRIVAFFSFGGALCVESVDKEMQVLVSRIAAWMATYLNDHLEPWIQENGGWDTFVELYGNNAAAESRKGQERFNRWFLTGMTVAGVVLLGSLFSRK
UniProt Q07817, 1-209 with tags or gaps DEL45-84 limits assumed: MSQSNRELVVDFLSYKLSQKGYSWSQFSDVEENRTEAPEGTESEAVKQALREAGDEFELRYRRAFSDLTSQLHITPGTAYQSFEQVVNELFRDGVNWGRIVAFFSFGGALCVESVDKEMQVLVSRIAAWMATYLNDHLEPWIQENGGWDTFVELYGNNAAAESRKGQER

Assays:
[1] = test system: HL-60 cells; test: Cell viability, trypan blue exclusion, HL-60; conditions: read-out: IC50, inhibition of cell viability; HL-60, trypan blue exclusion, 24 hours
[2] = target: Bcl-XL (Homo sapiens, UniProt Q07817, DEL45-84); test: NMR HSQC binding experiment with 15N labeled Bcl-XL; conditions: 300 μM Bcl-XL, 300 μM compound, pH 7.3, 25° C.
[3] = test system: MDA-453 cells; test: Cell viability, trypan blue exclusion, MDA-453; format: cell-based, human; conditions: MDA-453, 25 μM
[4] = test system: T47D cells; test: Cell viability, trypan blue exclusion, T47D; format: cell-based, human; conditions: 25 μM
[5] = test system: HL-60 cells; test: Cell growth MTT assay, HL-60; conditions: read-out: IC50, inhibition of cell growth; HL-60, MTT assay, cells treated for 4 days
[6] = target: Bcl-XL (Homo sapiens, UniProt Q07817); test: FP binding assay on Bcl-XL; conditions: read-out: IC50, binding to Bcl-XL

COc1ccc2c(c1)CCc1cc(OC)ccc1[N+]([O-])=[N+]2[O-] [Compound 6a, 2,9-Dimethoxy-11,12-dihydrodibenzo [c,g] [1,2] diazocine-5,6-dioxide]
IC50 [1]: 10 µM
binding to Bcl-XL by HSQC chemical shift changes [2]: binds to the BH3 binding site in Bcl-XL and doesn't unfold the protein
effect on cell viability [3]: no effect
effect on cell viability [4]: minimal activity
IC50 [5]: 4 µM
IC50 [6]: 7 µM
